In patent publication US6475746B1, “Method of obtaining a composition comprising a 5-HT1D selective compound” (Synaptic Pharmaceutical Corporation, priority 1990, dated 2002):
Where two headings read alike, the source gives them in different places.

Protein sequences, listed by entry. Tags and fused reporters are not part of them. Lines headed by an entry give the natural chain unless they say otherwise; changes in a name come on top.
UniProt P28221: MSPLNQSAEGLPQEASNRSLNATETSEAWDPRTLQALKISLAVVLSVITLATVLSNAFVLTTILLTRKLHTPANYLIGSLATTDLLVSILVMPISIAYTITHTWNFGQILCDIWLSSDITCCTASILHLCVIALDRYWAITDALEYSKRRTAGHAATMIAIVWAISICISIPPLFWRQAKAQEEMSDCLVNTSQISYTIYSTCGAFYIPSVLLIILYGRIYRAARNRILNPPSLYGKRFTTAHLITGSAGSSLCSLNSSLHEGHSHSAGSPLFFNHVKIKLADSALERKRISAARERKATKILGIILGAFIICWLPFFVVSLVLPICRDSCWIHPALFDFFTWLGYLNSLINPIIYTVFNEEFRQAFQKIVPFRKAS
UniProt P28222, whole entry: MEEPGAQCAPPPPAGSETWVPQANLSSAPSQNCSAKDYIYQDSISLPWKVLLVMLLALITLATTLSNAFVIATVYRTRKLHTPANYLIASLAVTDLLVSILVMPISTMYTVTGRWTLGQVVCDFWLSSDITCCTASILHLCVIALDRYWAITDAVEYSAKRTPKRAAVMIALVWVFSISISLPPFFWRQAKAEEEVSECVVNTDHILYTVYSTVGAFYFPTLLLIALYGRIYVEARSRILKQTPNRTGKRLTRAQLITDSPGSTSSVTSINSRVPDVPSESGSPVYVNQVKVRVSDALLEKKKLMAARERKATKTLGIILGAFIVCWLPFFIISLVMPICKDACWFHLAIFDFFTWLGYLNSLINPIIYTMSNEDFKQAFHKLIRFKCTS
UniProt P28564, whole entry: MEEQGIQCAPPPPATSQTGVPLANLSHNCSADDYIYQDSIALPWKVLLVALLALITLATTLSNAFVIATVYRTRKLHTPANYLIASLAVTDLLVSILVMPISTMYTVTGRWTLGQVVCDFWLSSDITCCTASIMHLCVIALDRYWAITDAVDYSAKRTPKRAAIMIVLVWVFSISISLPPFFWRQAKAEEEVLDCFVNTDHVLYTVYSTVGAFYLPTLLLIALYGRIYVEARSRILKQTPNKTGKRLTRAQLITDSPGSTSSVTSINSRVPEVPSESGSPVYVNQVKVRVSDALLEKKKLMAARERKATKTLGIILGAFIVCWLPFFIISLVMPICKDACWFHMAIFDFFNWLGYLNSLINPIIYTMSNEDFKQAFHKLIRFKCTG

Key:
[1] = target: Cloned Human 5-HT1D-1 (Homo sapiens, UniProt P28221); test: [3H]5-HT binding to cloned human 5-HT1D-1 (gene 8-30-84) in transfected cell membranes; conditions: read-out: Estimated equilibrium dissociation constants (Ki values); [3H]5-HT displacement; membranes of LM (tk−) cells stably transfected; Cheng-Prusoff
[2] = target: Cloned Human 5-HT1D-2 (Homo sapiens, UniProt P28222); test: [3H]5-HT binding to cloned human 5-HT1D-2 (gene 11) in transfected cell membranes
[3] = target: T1, cloned rat 5-HT1B receptor (Rattus norvegicus, UniProt P28564); conditions: Cos-7 membranes; read-out: equilibrium dissociation constant for [3H]5-HT binding
T1 construct: expressed in transfected cells; host or cells: Cos-7 cells, transient; membrane fraction

Row | Ki [1] | Substance | Kd ([2]; read-out: Kd of radioligand, Ltk- cells transfected with gene 11) | Kd ([2]; read-out: affinity of radioligand binding, transiently transfected Cos-7 cells, peptide 11) | Kd [3]
1 | > 10 µM | Corynanthine |  |  | 
2 |  | ^3H-5-HT | 2.3 nM | 3 nM | 18.4 nM
